Membrane permeability of cyclic peptides

Values of Furukawa et al. 2016, doi:10.1021/acs.jmedchem.6b01246, as listed in CycPeptMPDB.

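Lipid, pH, incubation time, direction and concentration are not recorded in the data file. Other peptides of the study may be missing here. Entries at the database's floor value (log10 P of -10) are not listed.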

PAMPA is the parallel artificial membrane permeability assay, which has no cells and reads passive diffusion.
Permeability is given as log10 of P in cm/s; higher (less negative) is more permeable.

compound | PAMPA (log10 cm/s)
CCCC[C@@H]1NC(=O)[C@H](CC(C)C)N(C)C(=O)CN(Cc2ccccc2)C(=O)[C@H](CC(C)C)NC(=O)CN(CCCOC(C)C)C(=O)[C@H]2CCCN2C1=O | -5.17
CCCC[C@@H]1NC(=O)[C@H](CC(C)C)N(C)C(=O)CN(CCOC)C(=O)[C@H](Cc2ccccc2)NC(=O)CN(Cc2ccc3c(c2)OCO3)C(=O)[C@H]2CCCN2C1=O | -5.36
CCCC[C@@H]1NC(=O)[C@H](CC(C)C)N(C)C(=O)CN(CC2CCOCC2)C(=O)[C@H](CC(C)C)NC(=O)CN(CCN2CCOCC2)C(=O)[C@H]2CCCN2C1=O | -6.87
CCCC[C@@H]1NC(=O)[C@H](CC(C)C)N(C)C(=O)CN(CC2CCOCC2)C(=O)[C@H](C)NC(=O)CN(CC(C)C)C(=O)[C@H]2CCCN2C1=O | -6.26
CCCCCN1CC(=O)N(C)[C@@H](CC(C)C)C(=O)N[C@@H](CCCC)C(=O)N2CCC[C@@H]2C(=O)N(Cc2ccc(Cl)cc2)CC(=O)N[C@@H](Cc2ccccc2)C1=O | -8.04
CCCC[C@@H]1NC(=O)[C@H](CC(C)C)N(C)C(=O)CN(Cc2ccccc2)C(=O)[C@H](CC(C)C)NC(=O)CN(CCN2CCOCC2)C(=O)[C@H]2CCCN2C1=O | -5.40
CCCC[C@@H]1NC(=O)[C@H](CC(C)C)N(C)C(=O)CN(CCCc2cnn(C)c2)C(=O)[C@H](C)NC(=O)CN(Cc2cc(CC(C)C)on2)C(=O)[C@H]2CCCN2C1=O | -5.79
CCCC[C@@H]1NC(=O)[C@H](CC(C)C)N(C)C(=O)CN(CC2CCCCC2)C(=O)[C@H](Cc2ccc3ccccc3c2)NC(=O)CN(CCC)C(=O)[C@H]2CCCN2C1=O | -7.24
CCCC[C@@H]1NC(=O)[C@H](CC(C)C)N(C)C(=O)CN(CCCc2cnn(C)c2)C(=O)[C@H](Cc2ccccc2)NC(=O)CN(Cc2ccccc2Cn2cccn2)C(=O)[C@H]2CCCN2C1=O | -5.68
CCCC[C@@H]1NC(=O)[C@H](CC(C)C)N(C)C(=O)CN(CC2CCOCC2)C(=O)[C@H](CC(C)C)NC(=O)CN(CCCOC(C)C)C(=O)[C@H]2CCCN2C1=O | -5.14
CCCC[C@@H]1NC(=O)[C@H](CC(C)C)N(C)C(=O)CN(Cc2ccccc2)C(=O)[C@H](C)NC(=O)CN(CC)C(=O)[C@H]2CCCN2C1=O | -5.45
CCCC[C@@H]1NC(=O)[C@H](CC(C)C)N(C)C(=O)CN(CCCc2ccccc2)C(=O)[C@H](CC(C)C)NC(=O)CN(Cc2cc(CC(C)C)on2)C(=O)[C@H]2CCCN2C1=O | -6.97
CCCC[C@@H]1NC(=O)[C@H](CC(C)C)N(C)C(=O)CN(CCOC)C(=O)[C@H](Cc2ccccc2)NC(=O)CN(CCCCc2ccccc2)C(=O)[C@H]2CCCN2C1=O | -6.30
CCCC[C@@H]1NC(=O)[C@H](CC(C)C)N(C)C(=O)CN(CCOc2ccccc2)C(=O)[C@H](CC(C)C)NC(=O)CN(CC(C)C)C(=O)[C@H]2CCCN2C1=O | -5.89
CCCC[C@@H]1NC(=O)[C@H](CC(C)C)N(C)C(=O)CN(CC2CCCCC2)C(=O)[C@H](C)NC(=O)CN(CCN2CCOCC2)C(=O)[C@H]2CCCN2C1=O | -5.92
CCCC[C@@H]1NC(=O)[C@H](CC(C)C)N(C)C(=O)CN(CCCc2cnn(C)c2)C(=O)[C@H](CC(C)C)NC(=O)CN(Cc2ccc3c(c2)OCO3)C(=O)[C@H]2CCCN2C1=O | -5.44
CCCC[C@@H]1NC(=O)[C@H](CC(C)C)N(C)C(=O)CN(CCOC)C(=O)[C@H](Cc2ccccc2)NC(=O)CN(CC(C)C)C(=O)[C@H]2CCCN2C1=O | -5.06
CCCC[C@@H]1NC(=O)[C@H](CC(C)C)N(C)C(=O)CN(CCCN2CCCC2=O)C(=O)[C@H](Cc2ccccc2)NC(=O)CN(CC)C(=O)[C@H]2CCCN2C1=O | -6.60
CCCC[C@@H]1NC(=O)[C@H](CC(C)C)N(C)C(=O)CN(CC2CCCCC2)C(=O)[C@H](Cc2ccc3ccccc3c2)NC(=O)CN(CCCCc2ccccc2)C(=O)[C@H]2CCCN2C1=O | -8.84

A selection of 2 entries from above:

| compound | PAMPA (log10 cm/s) |
|---|---|
| CCCC[C@@H]1NC(=O)[C@H](CC(C)C)N(C)C(=O)CN(CCOC)C(=O)[C@H](Cc2ccccc2)NC(=O)CN(CCCCc2ccccc2)C(=O)[C@H]2CCCN2C1=O | -6.30 |
| CCCC[C@@H]1NC(=O)[C@H](CC(C)C)N(C)C(=O)CN(CCCc2cnn(C)c2)C(=O)[C@H](C)NC(=O)CN(Cc2cc(CC(C)C)on2)C(=O)[C@H]2CCCN2C1=O | -5.79 |